Results as given in US12448382B2, “Heterocyclic compounds for mediating tyrosine kinase 2 activity” (GUANGZHOU INNOCARE PHARMA TECH CO., LTD., priority 2019, dated 2025).

Sequences of proteins named here, by UniProt entry; tags and fusion partners are left off. Residues count along the entry.
UniProt O60674, 826-1132 limits assumed: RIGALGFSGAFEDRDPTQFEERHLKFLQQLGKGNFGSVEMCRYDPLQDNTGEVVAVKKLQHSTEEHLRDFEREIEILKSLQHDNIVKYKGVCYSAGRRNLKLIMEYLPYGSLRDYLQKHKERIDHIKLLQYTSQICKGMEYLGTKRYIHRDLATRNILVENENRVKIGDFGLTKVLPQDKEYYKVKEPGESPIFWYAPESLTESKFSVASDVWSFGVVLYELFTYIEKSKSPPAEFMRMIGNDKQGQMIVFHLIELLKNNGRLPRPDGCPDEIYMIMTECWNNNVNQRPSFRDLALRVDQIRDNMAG
UniProt P29597, 871-1187 limits assumed: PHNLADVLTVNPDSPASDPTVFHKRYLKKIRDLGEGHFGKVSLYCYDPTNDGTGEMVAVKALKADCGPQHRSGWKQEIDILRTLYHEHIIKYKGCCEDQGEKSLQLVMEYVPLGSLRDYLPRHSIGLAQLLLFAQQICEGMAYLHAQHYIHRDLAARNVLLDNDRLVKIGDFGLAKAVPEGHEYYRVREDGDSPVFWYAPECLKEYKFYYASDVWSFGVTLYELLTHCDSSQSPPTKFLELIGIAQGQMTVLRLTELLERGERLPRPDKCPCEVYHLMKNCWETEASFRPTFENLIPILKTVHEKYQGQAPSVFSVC

Experiments:
[1] = molecular target: human recombinant JAK2 protein (Homo sapiens, UniProt O60674); experiment: JAK2 Inhibition Assay (HTRF kinase assay); conditions: read-out: IC50 (nM) JAK2, human recombinant JAK2, 2.5 μM ATP substrate solution
Method: The effect of the compounds of the present invention on the enzymatic activity of JAK2 was assessed by detecting the substrate phosphorylation level in a kinase reaction using the HTRF kinase assay detection kit (Cisbio, Cat. No. 62TK0PEC).
(§1) The experimental method is generally described below:
A reaction buffer contained the following components: an enzyme reaction buffer (1×), 5 mM MgCl2, 1 mM DTT and 0.01% Brij35 from the kit. A JAK2 kinase solution contained a human recombinant JAK2 protein (Carna Biosciences, 08-045) diluted in the reaction buffer to 0.15 ng/μL. A substrate reaction solution contained 2.5 μM ATP and 0.25 μM of a biotinylated tyrosine kinase substrate from the kit in the reaction buffer. A detection solution contained 0.1 ng/μL Eu^3+-labeled cage antibody (Cisbio, 61T66KLB) and 12.5 nM streptavidin-labeled XL665 (Cisbio, 610SAXLB) in the reaction buffer.
(§2) The test compound was dissolved in DMSO to 10 μM, followed by a serial 4-fold dilution with DMSO to a minimum concentration of 0.061 nM. Each concentration was further diluted 40-fold with the reaction buffer.
(§3) To a 384-well assay plate (Corning, 3674) were added 4 μL of compound solution and 2 μL of JAK2 kinase solution. The mixture was mixed and incubated at room temperature for 15 minutes, and then added with 4 μL of the substrate reaction solution. […] An Envision plate reader (Perkin Elmer) was then used to measure the progress of the reaction at 620 nm and 665 nm. The ratio of absorbances at 665 nm and 620 nm was positively correlated with the degree of substrate phosphorylation, therefore the activity of JAK2 kinase was detected. […] The percentage of inhibition on JAK2 kinase activity by the test compound was calculated using the following formula: Percentage of inhibition=100−100*(ratiocompound−ratio100% inhibition)/(ratio0% inhibition−ratio100% inhibition)
The IC50 value of the test compound was calculated from 8 concentration points using the XLfit softwere (ID Business Solutions Ltd., UK) by the following formula: Y=Bottom+(Top−Bottom)/(1+10^((log IC50−X)×slope factor)) […]

[2] = molecular target: human recombinant TYK2 protein (Homo sapiens, UniProt P29597); experiment: TYK2 Inhibition Assay (HTRF kinase assay); conditions: read-out: IC50 (nM) TYK2, human recombinant TYK2, 11.25 μM ATP substrate solution
Method: The effect of the compounds of the present invention on the enzymatic activity of TYK2 was assessed by detecting the substrate phosphorylation level in a kinase reaction using the HTRF kinase assay detection kit (Cisbio, Cat. No. 62TK0PEC).
as §1
A reaction buffer contained the following components: an enzyme reaction buffer (1×), 5 mM MgCl2 mM DTT and 0.01% Brij35 from the kit. A TYK2 kinase solution contained human recombinant TYK2 protein (Carna Biosciences, 08-147) diluted in the reaction buffer to 0.25 ng/μL. A substrate reaction solution contained 11.25 μM ATP and 0.5 μM of a biotinylated tyrosine kinase substrate from the kit in the reaction buffer. A detection solution contained 0.1 ng/μL Eu^3+-labeled cage antibody (Cisbio, 61T66KLB) and 25 nM streptavidin-1 added XL665 (Cisbio, 610SAXLB) in the reaction buffer.
as §2
as §3, with “TYK2” for “JAK2”, “test,” for “test”
The IC50 value of the test compound was calculated from 8 concentration points using the XLfit software (ID Business Solutions Ltd., UK) by the following formula: Y=Bottom+(Top−Bottom)/(1+10^((log IC50−X)slope factor)) […]

[3] = system: IL-12-induced IFN-γ secretion in NK92 cells; experiment: Inhibition of IL-12-induced IFN-γ Secretion in NK92 Cells (ELISA); conditions: read-out: IC50 (NK92_IL12/IFNγ), 24 hours incubation, 8 concentration points
Method: Inhibition of IL-12-induced IFN-γ Secretion in NK92 Cells
The effect of the compounds of the present invention on IFN-γ secretion induced by IL-12 in NK92 cells was evaluated by an enzyme-linked immunosorbent assay (ELISA).
IL-12 receptor is mainly expressed in activated T-cells, NK cells (NK92 is a NK cell line), DC cells, and B-cells. When binding to IL-12, it activates JAK2/TYK2 signal transduction pathway within NK cells and T lymphocytes, thereby inducing secretion of IFN-γ.
as §1
The test compound was dissolved in DMSO to 2.5 mM, followed by a serial 4-fold dilution with DMSO to a minimum concentration of […]. Each concentration was further diluted 50-fold with an FBS-free MEMα medium (Gibco, 12561-056).
NK92 cells (Nanjing Cobioer, CBP60980) were cultured in a complete MEMα medium containing 12.5% FBS (Ausbian, VS500T), 12.5% horse serum (Gibco, 16050-122), 0.02 mM folic acid (Sigma, F8758), 0.2 mM inositol (Sigma, 17850), 0.55 mM β-mercaptoethanol (Gibco, 21985-023), 200 U/mL IL-2 (R&D Systems, 202-1L), and 100 U/mL penicillin (Thermofisher, 15140122). […]
After overnight incubation, 10 μL of the test compound and 10 μL of 50 ng/mL IL-12 (R & D Systems, 219-1L) were added to each well and mix gently, and the 96-well plate was incubated in the 37° C./5% CO2 incubator for additional 24 hours. […] The amount of IFN-γ secretion was detected following the instruction from the Human IFN-γ DuoSet ELISA kit (R & D Systems, DY285B). […] The percentage of inhibition on IL-12 induced IFN-γ secretion in NK-92 cells by the test compound was calculated using the following formula: Percentage of inhibition=100−100*(signalcompound−signalnon-stimulated control)/(signalstimulated control−signalnon-stimulated control)
The IC50 value of the test compound was calculated front 8 concentration points using the XLfit software (ID Business Solutions Ltd., UK) by the following formula: Y=Bottom+(Top−Bottom)/(1+10^((log IC50−X)×slope factor)) […]

| SMILES | IC50 [1] | IC50 [2] | IC50 [3] |
| --- | --- | --- | --- |
| Cn1cc(Nc2ncc(Cl)c(N3C[C@@]4(C)CN(S(=O)(=O)C5CC5)C[C@@]4(C)C3)n2)cn1 | 3 nM | 3.4 nM | 646 nM |
| Cc1cnc(Nc2cnn(C)c2)nc1N1C[C@]2(C)CN(C(=O)c3ccno3)C[C@]2(C)C1 | 6.5 nM | 5.6 nM | 564 nM |
| Cn1cc(Nc2ncc(Cl)c(N3C[C@]4(C)CN(C(=O)c5ccno5)C[C@]4(C)C3)n2)cn1 | 3.9 nM | 0.9 nM | 591 nM |
